Values of other authors in US8524201B2, “Non-cytotoxic chlorine dioxide fluids” (BASF Corporation, priority 2008, dated 2013).

Conditions: background statement

chlorous acid
pKa for the chlorite ion/chlorous acid equilibrium: 1.8
